Measurements as given in paper PMC3445454, “Broad and Cross-Clade CD4^+ T-Cell Responses Elicited by a DNA Vaccine Encoding Highly Conserved and Promiscuous HIV-1 M-Group Consensus Peptides” (PLoS ONE, 2012).

Protein sequences, listed by entry. Tags and fused reporters are not part of them. Residues count along the entry.
UniProt P01920, 33-261: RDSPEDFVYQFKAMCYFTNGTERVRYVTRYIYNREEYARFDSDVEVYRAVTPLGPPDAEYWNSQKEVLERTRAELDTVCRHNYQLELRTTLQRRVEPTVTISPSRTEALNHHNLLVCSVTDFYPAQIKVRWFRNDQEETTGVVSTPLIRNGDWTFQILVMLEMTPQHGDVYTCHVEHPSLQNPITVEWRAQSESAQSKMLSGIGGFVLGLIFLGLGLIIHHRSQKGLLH

What follows are molecules tested against HLA-DQ DQA1*05:01/DQB1*03:01 (Homo sapiens, UniProt P01909+P01920) (assay: biochemical).

Compared with `CC[C@H](C)[C@H](NC(=O)[C@H](CCCCN)NC(=O)[C@@H](NC(=O)[C@@H](NC(=O)[C@H](CCCNC(=N)N)NC(=O)[C@@H](NC(=O)[C@H](C)NC(=O)[C@H](CCCCN)NC(=O)[C@H](CC(C)C)NC(=O)[C@H](CC(C)C)NC(=O)[C@H](CCC(=O)O)NC(=O)[C@H](CCC(=O)O)NC(=O)[C@@H](N)CC(=O)O)C(C)C)[C@@H](C)CC)[C@@H](C)CC)C(=O)N[C@@H](CC(C)C)C(=O)N[C@@H](Cc1ccc(O)cc1)C(=O)N[C@@H](CCC(N)=O)C(=O)N[C@@H](CO)C(=O)N[C@@H](CC(N)=O)C(=O)N1CCC[C@H]1C(N)=O` [rev(9-27)], `CC[C@H](C)[C@H](NC(=O)[C@@H](NC(=O)[C@H](CCCCN)NC(=O)[C@H](C)NC(=O)[C@H](CCCCN)NC(=O)[C@H](CCCNC(=N)N)NC(=O)[C@H](CCCNC(=N)N)NC(=O)[C@@H]1CCCN1C(=O)[C@@H](NC(=O)[C@@H](NC(=O)[C@H](CCCCN)NC(=O)[C@@H](NC(=O)[C@H](CC(=O)O)NC(=O)[C@H](CO)NC(=O)[C@H](CC(N)=O)NC(=O)[C@H](CC(=O)O)NC(=O)[C@H](CCC(N)=O)NC(=O)[C@@H](NC(=O)[C@@H](NC(=O)[C@@H](N)C(C)C)C(C)C)[C@@H](C)CC)[C@@H](C)CC)C(C)C)C(C)C)[C@@H](C)CC)C(N)=O` [integrase(249-268)] is 11-fold higher in IC50: 1.96 µM for the first, 22 µM for the second.

Compared with `CC[C@H](C)[C@H](N)C(=O)N[C@H](C(=O)N[C@@H](C)C(=O)N[C@@H](CC(C)C)C(=O)N[C@H](C(=O)N[C@H](C(=O)N[C@@H](C)C(=O)N[C@H](C(=O)N[C@H](C(=O)N[C@H](C(=O)N[C@@H](Cc1c[nH]c2ccccc12)C(=O)N[C@H](C(=O)N[C@H](C(=O)N[C@H](C(N)=O)C(C)C)[C@@H](C)CC)[C@@H](C)O)C(C)C)C(C)C)[C@@H](C)CC)[C@@H](C)CC)[C@@H](C)CC)C(C)C` [vpu(13-26)], `CC[C@H](C)[C@H](NC(=O)[C@H](Cc1ccc(O)cc1)NC(=O)CNC(=O)[C@H](CO)NC(=O)[C@H](C)NC(=O)[C@@H](NC(=O)[C@H](Cc1c[nH]cn1)NC(=O)[C@@H](NC(=O)[C@H](C)NC(=O)[C@@H](NC(=O)[C@H](CC(C)C)NC(=O)[C@@H](NC(=O)[C@@H](NC(=O)[C@H](CCCCN)NC(=O)CNC(=O)[C@@H](N)CCC(=O)O)[C@@H](C)CC)[C@@H](C)CC)C(C)C)C(C)C)C(C)C)C(=O)N[C@@H](CCC(=O)O)C(N)=O` [integrase(69-85)] is lower in IC50: over 30 µM for the first, 3.84 µM for the second. The second is the more potent here.

Going from `CSCC[C@H](NC(=O)[C@H](CCCCN)NC(=O)[C@H](C)NC(=O)[C@H](Cc1ccc(O)cc1)NC(=O)[C@H](CCCCN)NC(=O)CNC(=O)[C@@H](NC(=O)[C@H](CCCCN)NC(=O)[C@H](CC(C)C)NC(=O)[C@H](CC(N)=O)NC(=O)[C@H](CCCCN)NC(=O)[C@H](Cc1ccccc1)NC(=O)[C@@H]1CCCN1C(=O)[C@H](CCC(=O)O)NC(=O)[C@@H](N)CCC(N)=O)[C@@H](C)O)C(N)=O` [RT(343-357)] to `CSCC[C@H](NC(=O)[C@H](CCCCN)NC(=O)[C@H](C)NC(=O)[C@@H](N)Cc1ccc(O)cc1)C(=O)N[C@@H](CCCNC(=N)N)C(=O)N[C@@H](CO)C(=O)N[C@@H](C)C(=O)N[C@@H](Cc1c[nH]cn1)C(=O)N[C@H](C(=O)N[C@@H](CC(N)=O)C(=O)N[C@@H](CC(=O)O)C(=O)N[C@H](C(=O)N[C@@H](CCCCN)C(=O)N[C@@H](CCC(N)=O)C(=O)N[C@@H](CC(C)C)C(N)=O)C(C)C)[C@@H](C)O` [RT(354-368)], the IC50 falls from 24.4 µM to 0.463 µM (53-fold). The second is the more potent here.

Going from `CC[C@H](C)[C@H](N)C(=O)N[C@@H](CCCNC(=N)N)C(=O)N[C@@H](Cc1ccc(O)cc1)C(=O)N1CCC[C@H]1C(=O)N[C@@H](CC(C)C)C(=O)N[C@H](C(=O)N[C@@H](Cc1ccccc1)C(=O)NCC(=O)N[C@@H](Cc1c[nH]c2ccccc12)C(=O)N[C@@H](CS)C(=O)N[C@@H](Cc1ccccc1)C(=O)N[C@@H](CCCCN)C(=O)N[C@@H](CC(C)C)C(=O)N[C@H](C(=O)N1CCC[C@H]1C(=O)N[C@H](C(=O)N[C@@H](CC(=O)O)C(=O)N1CCC[C@H]1C(=O)N[C@@H](CCCNC(=N)N)C(=O)N[C@@H](CCC(=O)O)C(=O)N[C@H](C(=O)N[C@@H](CCC(=O)O)C(=O)N[C@@H](CCC(=O)O)C(=O)N[C@@H](C)C(N)=O)C(C)C)C(C)C)C(C)C)[C@@H](C)O` [nef(133-156)] to `CC[C@H](C)[C@H](NC(=O)[C@H](CCCCN)NC(=O)[C@@H](NC(=O)[C@@H](NC(=O)[C@@H](N)CCC(N)=O)[C@@H](C)CC)[C@@H](C)O)C(=O)N[C@@H](CCC(N)=O)C(=O)N[C@@H](CC(N)=O)C(=O)N[C@@H](Cc1ccccc1)C(=O)N[C@@H](CCCNC(=N)N)C(=O)N[C@H](C(=O)N[C@@H](Cc1ccc(O)cc1)C(=O)N[C@@H](Cc1ccc(O)cc1)C(=O)N[C@@H](CCCNC(=N)N)C(=O)N[C@@H](CC(=O)O)C(=O)N[C@@H](CO)C(=O)N[C@@H](CCCNC(=N)N)C(=O)N[C@@H](CC(=O)O)C(=O)N1CCC[C@H]1C(=O)N[C@H](C(=O)N[C@@H](Cc1c[nH]c2ccccc12)C(N)=O)[C@@H](C)CC)C(C)C` [integrase(216-235)], the IC50 falls from 18.5 µM to 5.99 µM (3.1-fold).

`CC[C@H](C)[C@H](NC(=O)[C@H](C)NC(=O)[C@@H](N)CCC(=O)O)C(=O)N[C@H](C(=O)N[C@@H](CCCNC(=N)N)C(=O)N[C@H](C(=O)N[C@@H](CC(C)C)C(=O)N[C@@H](CCC(N)=O)C(=O)N[C@@H](CCC(N)=O)C(=O)N[C@@H](CC(C)C)C(=O)N[C@@H](CC(C)C)C(=O)N[C@@H](Cc1ccccc1)C(=O)N[C@H](C(=O)N[C@@H](Cc1c[nH]cn1)C(=O)N[C@@H](Cc1ccccc1)C(=O)N[C@@H](CCCNC(=N)N)C(=O)N[C@H](C(=O)NCC(=O)N[C@@H](CS)C(=O)N[C@@H](CCC(N)=O)C(=O)N[C@@H](Cc1c[nH]cn1)C(=O)N[C@@H](CO)C(=O)N[C@@H](CCCNC(=N)N)C(N)=O)[C@@H](C)CC)[C@@H](C)CC)[C@@H](C)CC)[C@@H](C)CC` [vpr(58-80)] and `CC[C@H](C)[C@H](NC(=O)[C@H](C)NC(=O)[C@H](CCCCN)NC(=O)[C@H](CCCCN)NC(=O)CNC(=O)[C@H](CS)NC(=O)[C@@H](NC(=O)[C@H](CCC(=O)O)NC(=O)[C@@H](NC(=O)[C@H](CC(C)C)NC(=O)[C@@H](NC(=O)[C@H](CCC(N)=O)NC(=O)[C@H](CC(=O)O)NC(=O)[C@H](Cc1ccc(O)cc1)NC(=O)[C@H](CCC(N)=O)NC(=O)[C@H](CCCNC(=N)N)NC(=O)[C@@H](NC(=O)[C@H](CCCCN)NC(=O)[C@@H](NC(=O)[C@@H](N)Cc1ccccc1)[C@@H](C)CC)C(C)C)[C@@H](C)CC)[C@@H](C)CC)[C@@H](C)CC)C(=O)NCC(=O)N[C@H](C(=O)N[C@H](C(N)=O)C(C)C)[C@@H](C)O` [protease(53-75)] are within 1.5-fold of each other in IC50: 4.39 µM for the first, 4.43 µM for the second.

First: CC[C@H](C)[C@H](NC(=O)[C@@H]1CCCN1C(=O)[C@H](CCC(=O)O)NC(=O)[C@@H](N)CCCCN)C(=O)N[C@H](C(=O)NCC(=O)N[C@@H](C)C(=O)N[C@@H](CCC(=O)O)C(=O)N[C@H](C(=O)N[C@@H](Cc1ccccc1)C(=O)N[C@@H](Cc1ccc(O)cc1)C(=O)N[C@H](C(=O)N[C@@H](CC(=O)O)C(=O)NCC(=O)N[C@@H](C)C(N)=O)C(C)C)[C@@H](C)O)C(C)C [RT(431-445)]
Second: CC[C@H](C)[C@H](NC(=O)[C@@H](NC(=O)[C@H](CCCCN)NC(=O)[C@@H](NC(=O)[C@@H]1CCCN1C(=O)[C@H](Cc1c[nH]c2ccccc12)NC(=O)[C@H](CCCNC(=N)N)NC(=O)CNC(=O)[C@H](C)NC(=O)[C@H](CC(C)C)NC(=O)[C@H](CCCCN)NC(=O)[C@H](CC(C)C)NC(=O)[C@@H](NC(=O)[C@H](Cc1ccccc1)NC(=O)[C@H](Cc1ccc(O)cc1)NC(=O)[C@H](C)NC(=O)[C@@H](NC(=O)[C@@H](N)CCC(=O)O)[C@@H](C)O)[C@@H](C)CC)C(C)C)C(C)C)C(N)=O [integrase(96-113)]
The IC50 of the first is 30-fold lower: 0.249 µM for the first, 7.52 µM for the second.

Going from `CC[C@H](C)[C@H](NC(=O)[C@H](CC(=O)O)NC(=O)[C@H](CC(C)C)NC(=O)[C@@H](NC(=O)[C@H](CO)NC(=O)[C@@H](NC(=O)[C@@H]1CCCN1C(=O)[C@H](CO)NC(=O)[C@H](Cc1ccc(O)cc1)NC(=O)[C@H](CCSC)NC(=O)[C@H](CCCNC(=N)N)NC(=O)[C@@H](NC(=O)[C@@H](NC(=O)[C@H](CCCCN)NC(=O)[C@H](CC(N)=O)NC(=O)[C@@H](N)CC(C)C)[C@@H](C)CC)C(C)C)C(C)C)[C@@H](C)CC)C(N)=O` [p24(138-153)] to `CC[C@H](C)[C@H](NC(=O)[C@H](CC(C)C)NC(=O)[C@H](C)NC(=O)[C@@H](NC(=O)[C@H](CC(C)C)NC(=O)[C@H](C)NC(=O)[C@H](CC(C)C)NC(=O)[C@H](Cc1ccc(O)cc1)NC(=O)[C@H](CCC(N)=O)NC(=O)[C@H](CC(C)C)NC(=O)[C@H](CO)NC(=O)CNC(=O)[C@@H](N)C(C)C)[C@@H](C)O)C(=O)N[C@H](C(=O)N1CCC[C@H]1C(=O)N[C@@H](CCCCN)C(=O)N[C@@H](CCCCN)C(N)=O)[C@@H](C)O` [vif(142-158)], the IC50 falls from 7.05 µM to 2.78 µM (2.5-fold).

Going from `CC(C)C[C@H](NC(=O)CNC(=O)[C@H](Cc1c[nH]cn1)NC(=O)[C@H](CC(C)C)NC(=O)[C@H](Cc1c[nH]c2ccccc12)NC(=O)[C@@H]1CCCN1C(=O)[C@H](CCCNC(=N)N)NC(=O)[C@@H]1CCCN1C(=O)[C@H](Cc1ccccc1)NC(=O)[C@H](Cc1c[nH]cn1)NC(=O)[C@H](CCCNC(=N)N)NC(=O)[C@@H](NC(=O)[C@H](C)NC(=O)[C@@H](N)CCC(=O)O)C(C)C)C(N)=O` [vpr(29-42)] to `CC[C@H](C)[C@H](NC(=O)[C@H](CCSC)NC(=O)[C@@H](NC(=O)[C@H](CCC(N)=O)NC(=O)[C@H](Cc1c[nH]c2ccccc12)NC(=O)[C@H](CCCNC(=N)N)NC(=O)[C@H](CC(N)=O)NC(=O)[C@H](CCC(=O)O)NC(=O)[C@@H](N)CCSC)C(C)C)C(=O)N[C@H](C(=O)N[C@@H](Cc1c[nH]c2ccccc12)C(=O)N[C@@H](CCC(N)=O)C(=O)N[C@H](C(=O)N[C@@H](CC(=O)O)C(=O)N[C@@H](CCCNC(=N)N)C(N)=O)C(C)C)C(C)C` [vif(1-15)], the IC50 falls from over 30 µM to 6.84 µM.

`CC[C@H](C)[C@H](NC(=O)[C@H](CCCCN)NC(=O)[C@H](CCC(N)=O)NC(=O)[C@@H](NC(=O)[C@H](C)NC(=O)[C@H](CCC(=O)O)NC(=O)[C@@H](N)[C@@H](C)O)C(C)C)C(=O)N[C@@H](C)C(=O)N[C@H](C(=O)N[C@@H](CCC(=O)O)C(=O)N[C@@H](CO)C(=O)N[C@H](C(=O)N[C@H](C(=O)N[C@H](C(=O)N[C@@H](Cc1c[nH]c2ccccc12)C(=O)NCC(=O)N[C@@H](CCCCN)C(=O)N[C@H](C(=O)N1CCC[C@H]1C(=O)N[C@@H](CCCCN)C(=O)N[C@@H](Cc1ccccc1)C(=O)N[C@@H](CCCNC(=N)N)C(=O)N[C@@H](CC(C)C)C(N)=O)[C@@H](C)O)[C@@H](C)CC)C(C)C)[C@@H](C)CC)[C@@H](C)O` [RT(369-391)] was tested, and the IC50 was 9.07 µM.
